Publication PMC7734590, “Identification of a Selective RelA Inhibitor Based on DSE-FRET Screening Methods” (International Journal of Molecular Sciences, 2020)

Protein sequences, listed by entry. Tags and fused reporters are not part of them. Residues count along the entry.
UniProt Q04206, 19-306 limits assumed: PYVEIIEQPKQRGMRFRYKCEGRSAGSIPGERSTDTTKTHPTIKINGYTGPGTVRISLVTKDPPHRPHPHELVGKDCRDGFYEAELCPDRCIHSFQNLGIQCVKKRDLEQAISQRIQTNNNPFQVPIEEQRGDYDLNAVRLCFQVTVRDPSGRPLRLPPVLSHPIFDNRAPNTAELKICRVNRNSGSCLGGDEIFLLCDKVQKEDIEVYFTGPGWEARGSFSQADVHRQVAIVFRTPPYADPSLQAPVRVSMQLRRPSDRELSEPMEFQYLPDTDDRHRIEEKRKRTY

Assays:
p52 = target: T1, p52 (Homo sapiens, UniProt Q00653); assay: DSE-FRET p52–DNA binding inhibition; type: biochemical; design: dose or concentration left out as unconfirmed
T1 sequence (Q00653 1-454 limits assumed): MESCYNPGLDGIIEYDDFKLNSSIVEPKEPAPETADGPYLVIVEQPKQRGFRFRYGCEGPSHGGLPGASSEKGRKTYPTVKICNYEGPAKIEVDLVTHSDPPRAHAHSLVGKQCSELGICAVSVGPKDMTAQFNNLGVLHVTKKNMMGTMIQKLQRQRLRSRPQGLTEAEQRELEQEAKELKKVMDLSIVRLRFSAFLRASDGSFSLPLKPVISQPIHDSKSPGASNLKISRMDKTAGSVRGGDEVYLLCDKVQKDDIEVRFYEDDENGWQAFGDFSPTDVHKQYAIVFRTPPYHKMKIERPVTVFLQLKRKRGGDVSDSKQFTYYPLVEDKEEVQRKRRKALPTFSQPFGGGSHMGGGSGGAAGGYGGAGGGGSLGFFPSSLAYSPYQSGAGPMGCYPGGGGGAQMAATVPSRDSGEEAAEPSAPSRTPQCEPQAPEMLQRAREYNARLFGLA

RelA = RelA (Homo sapiens, UniProt Q04206); assay: DSE-FRET RelA–DNA binding inhibition; type: biochemical; design: dose or concentration left out as unconfirmed

## COc1ccc(C[C@H]2NC[C@H](O)[C@H]2OC(C)=O)cc1 [Anisomycin]
p52; HTS, NPDepo hits
  p52 HTS % Inhibition: 1.6%
p52; Retest Run1
  p52 Retest % Inhibition Run1: 0.6%
p52; Retest Run2
  p52 Retest % Inhibition Run2: 1.8%
p52; Retest average of Run1 and Run2
  p52 Retest % Inhibition Avg.: 1.2%
p52; kinetic assay, ΔRFU 60 min-0 min
  Kinetic assay p52 Inhibition % ΔRFU(60 min-0 min): -0.041%
RelA
  Kinetic assay RelA Inhibition % ΔRFU(60 min-0 min): -1.48%
  RelA HTS % Inhibition: 52.5%
  RelA Retest % Inhibition Avg.: 1.4%
  RelA Retest % Inhibition Run1: 0.565%
  RelA Retest % Inhibition Run2: 2.1%
